In one assay the target is T1, BmoR A117T/F163Y (Thauera butanivorans, UniProt A7MAQ9, A117T/F163Y).
T1 construct: full-length BmoR, biosensor plasmid pWT-A117T/F163Y (PbmoR-bmoR; Pbmo-gfp)
Type of assay: cell-based, E. coli XL10-Gold. As to conditions: read-out: Apparent Km; n = 3. The procedure: (§1) The response values of the above colonies containing various BmoR mutants to n-pentanol, isopentanol, n-butanol or isobutanol were tested. The single colonies were pre-inoculated into 5 mL LB medium with 50 μg/mL carbenicillin and then cultured at 37 °C overnight. After that, 50 μL of the seed culture was transferred into 950 μL LB medium which was supplemented with appropriate antibiotics and 10 mM n-pentanol, isopentanol, n-butanol or isobutanol in 96-deep-well plates and the cultures were then left at 30 °C for 16 h. […] The excitation and emission wavelengths were set as 470 and 510 nm, respectively. The fluorescence values were normalized as the GFP/OD600 values. Besides, 1 mL of the culture was centrifuged at 5,000 rpm for 5 min. The supernatant was discarded, and the sediment was then resuspended in 2 mL of the physiological saline. 5 μL of the culture was spotted onto glass slides for fluorescence microscopy (UOP 2100). Fifteen colonies which only responded to 10 mM n-pentanol or isopentanol were screened out. The bmoRs in the 15 colonies were amplified and sequenced to identify the mutation sites. Finally, the bmoRs in the five colonies were mutated.
(§2) To obtain the response curves and measure the apparent Km values of BmoR mutants towards SMs, the pentanol concentrations in 96-deep-well plates ranged between 0 and 60 mM, and butanols concentrations ranged between 0 and 100 mM. […]

The target in a further assay is T2, BmoR WT (Thauera butanivorans, UniProt A7MAQ9).
T2 construct: full-length BmoR, expressed from biosensor plasmid (PbmoR-bmoR; Pbmo-gfp) in E. coli; hexamer
T2 sequence (A7MAQ9 1-669): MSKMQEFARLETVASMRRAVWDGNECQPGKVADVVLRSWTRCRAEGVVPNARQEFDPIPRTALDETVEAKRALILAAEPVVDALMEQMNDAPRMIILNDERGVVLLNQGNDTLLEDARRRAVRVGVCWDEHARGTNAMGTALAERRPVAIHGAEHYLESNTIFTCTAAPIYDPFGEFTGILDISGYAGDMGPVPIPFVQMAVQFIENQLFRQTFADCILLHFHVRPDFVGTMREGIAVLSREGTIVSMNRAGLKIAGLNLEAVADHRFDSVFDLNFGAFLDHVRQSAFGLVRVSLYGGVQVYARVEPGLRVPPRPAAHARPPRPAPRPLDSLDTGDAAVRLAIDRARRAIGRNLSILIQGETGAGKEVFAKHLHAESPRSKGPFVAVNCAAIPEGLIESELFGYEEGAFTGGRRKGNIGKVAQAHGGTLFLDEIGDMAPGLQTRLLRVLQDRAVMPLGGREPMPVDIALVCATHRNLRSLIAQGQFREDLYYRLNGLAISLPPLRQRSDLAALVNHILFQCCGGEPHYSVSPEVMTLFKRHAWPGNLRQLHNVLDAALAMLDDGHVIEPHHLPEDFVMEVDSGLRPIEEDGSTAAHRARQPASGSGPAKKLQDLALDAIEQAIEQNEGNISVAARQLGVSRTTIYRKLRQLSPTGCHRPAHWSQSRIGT
The assay is described as follows: Whole-cell BmoR biosensor dose-response (GFP/OD600, Pbmo-gfp reporter) in 96-deep-well plates with 0-60 mM pentanols or 0-100 mM butanols, LB medium at 30 °C, fitted to the Michaelis-Menten equation. It counts as cell-based, E. coli XL10-Gold. As to conditions: read-out: Apparent Km; n = 3. The procedure:
as §1, §2

Assay [1] deals with T3, BmoR WT (fusion with sfGFP) (Thauera butanivorans, UniProt A7MAQ9).
T3 construct: SUMO-BmoR-TEV-sfGFP-His fusion, E. coli BL21(DE3) lysate supernatant
T3 sequence (A7MAQ9 1-669): T2 sequence (A7MAQ9 1-669)
The assay is described as follows: MicroScale Thermophoresis of sfGFP-fused BmoR in E. coli BL21(DE3) lysate supernatant, 16-point ligand dilution in assay buffer with 1 % DMSO, incubated at 37 °C for 15 min. Type of assay: binding. As to conditions: n = 3. The procedure: Plasmids pWT-SUMO-BmoR-TEV-sfGFP-His, pWT-SUMO-BmoR^M94V/A117T/F163Y/F272L-TEV-sfGFP-His, and pWT-SUMO-BmoR^M94V/W128R/F272L-TEV-sfGFP-His were individually transformed into E. coli BL21(DE3). […] Subsequently, 100 µL of the seed culture was transferred to 100 mL LB medium and grown at 37 °C until the OD600 value reached 0.8. 0.1 mM IPTG was added into the culture, and the culture was incubated at 16 °C, 170 rpm for 12–18 h. 50 mL centrifuge tubes were used to centrifuge the culture at 5,000 rpm for 15 min to collect the cell pellets. The pellets were then resuspended in 15 mL of the binding buffer, and the cells were disrupted using the ultrasonic cell crusher. The mixture was then centrifuged at 10,000 rpm for 30 min to collect the supernatant. The Kd values of the wild-type BmoR and the mutants towards four SMs were measured by the MicroScale Thermophoresis (MST, Nanotemper) from Wuhan Bio-lab Biotechnology Co., Ltd.
A 10 µL aliquot of the supernatant was diluted three folds with the assay buffer. The MST sample chamber was opened, and the tray was removed. The diluted protein sample was aspirated using a capillary and placed in the corresponding slot of the tray. The information of the protein samples and assay bugger was input, and the type of capillary was selected. The excitation power was set to “Auto”, and MST power was set to “High”. […]
In general terms: MST reads how a fluorescent partner responds to local heating, with and without ligand.

One may read the Kd as the constant that tells how readily two partners part at equilibrium. A lower Kd goes with tighter binding. As to 1-butanol [n-Butanol], the figures for the EC50 on BmoR A117T/F163Y and on BmoR WT were 7.83 mM and 7.9 mM, respectively. In assay [1], this substance gave a Kd of 0.00125 mM.

Values taken from publication PMC13227213, “Design of strictly orthogonal biosensors for maximizing renewable biofuel overproduction” (Journal of Advanced Research, 2025).
